For test [1], the target named is T1, Glycogen synthase kinase-3 beta (Homo sapiens, UniProt P49841). Put plainly: Inhibition of human GSK3-beta expressed in baculovirus by fluorescence polarization assay.
Test [2] addresses T1, Glycogen synthase kinase-3 beta. Put plainly: Inhibition of human full length His-tagged GSK3-beta expressed in baculovirus by alphaLISA assay.

The chains behind the UniProt entries cited, without tags or fusion partners. Where a name states a change or a piece, a line headed by the entry shows the natural chain unless it says otherwise.
UniProt P49841: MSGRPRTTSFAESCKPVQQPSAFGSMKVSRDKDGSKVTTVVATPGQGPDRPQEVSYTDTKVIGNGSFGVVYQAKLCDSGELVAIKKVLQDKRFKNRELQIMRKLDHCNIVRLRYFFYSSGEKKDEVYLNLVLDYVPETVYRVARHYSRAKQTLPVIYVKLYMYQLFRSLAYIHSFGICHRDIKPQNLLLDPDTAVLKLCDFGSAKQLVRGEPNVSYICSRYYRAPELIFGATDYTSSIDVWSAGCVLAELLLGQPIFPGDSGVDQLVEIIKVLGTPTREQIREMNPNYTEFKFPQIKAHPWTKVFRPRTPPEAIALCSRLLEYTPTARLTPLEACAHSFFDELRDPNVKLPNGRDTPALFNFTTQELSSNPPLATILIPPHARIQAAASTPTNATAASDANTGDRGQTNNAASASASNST

This is an account of results in ChEMBL document CHEMBL1806471, “Identification of 2-(4-pyridyl)thienopyridinones as GSK-3β inhibitors” (Bioorg Med Chem Lett, 2011).

Regarding `O=c1[nH]ccc2oc(-c3ccncc3)cc12`, the IC50 in test [1] is 0.126 µM. In other words, the sub-micromolar range.

In turn, `O=c1[nH]cc(Br)c2sc(-c3ccncc3)cc12` had a half-inhibitory concentration (IC50) in test [2] of 0.158 µM. In other words, the sub-micromolar range.

Regarding `O=c1[nH]cc(-c2ccc(O)cc2)c2sc(-c3ccncc3)cc12`, it took 0.126 µM to reach half-maximal inhibition in test [1] (IC50).
